Patent US20070281909A1, “Creatine phosphate prodrugs, compositions and uses thereof” (XenoPort, Inc., priority 2006, published 2007)

Protein sequences, listed by entry. Tags and fused reporters are not part of them. Lines headed by an entry give the natural chain unless they say otherwise; changes in a name come on top.
UniProt Q9Y289: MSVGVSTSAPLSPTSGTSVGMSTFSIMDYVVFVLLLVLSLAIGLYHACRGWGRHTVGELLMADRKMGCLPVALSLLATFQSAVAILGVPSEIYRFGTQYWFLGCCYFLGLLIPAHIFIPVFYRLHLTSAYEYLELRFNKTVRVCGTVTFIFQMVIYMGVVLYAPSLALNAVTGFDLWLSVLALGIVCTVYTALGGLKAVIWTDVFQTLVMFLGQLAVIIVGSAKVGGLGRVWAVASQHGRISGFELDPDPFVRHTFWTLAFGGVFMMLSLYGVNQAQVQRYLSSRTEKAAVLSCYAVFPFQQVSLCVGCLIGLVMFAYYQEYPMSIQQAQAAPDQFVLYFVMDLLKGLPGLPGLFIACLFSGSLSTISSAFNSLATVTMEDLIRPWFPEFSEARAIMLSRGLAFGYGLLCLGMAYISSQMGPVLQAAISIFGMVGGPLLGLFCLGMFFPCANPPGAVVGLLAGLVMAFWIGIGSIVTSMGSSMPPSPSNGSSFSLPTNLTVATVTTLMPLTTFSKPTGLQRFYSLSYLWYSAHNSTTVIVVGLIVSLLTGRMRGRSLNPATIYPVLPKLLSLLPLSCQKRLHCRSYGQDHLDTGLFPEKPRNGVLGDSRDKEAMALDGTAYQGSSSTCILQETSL

Tests used:
H9C2 cells = test: Protection against 3-nitropropionic acid induced toxicity (ATP luminescence); type: cell-based, rat; details: incubated 2.5 hours with compound, then 3-NP for 20 hours; FIG. 11
SMVT transporter = SMVT transporter (Homo sapiens, UniProt Q9Y289); test: Uptake in HEK cells induced / not induced to express SMVT; details: FIG. 8; induced vs not induced cells
[1] = tested on: HEK cells expressing SMVT; test: Effect of treatment on the creatine kinase system (intracellular creatine phosphate, ATP, creatine); type: cell-based, human; details: for Percent Increase in Intracellular Concentrations, ATP / Percent Increase in Intracellular Concentrations, Creatine / Percent Increase in Intracellular Concentrations, Creatine Phosphate: 100 μM, relative to buffer
[2] = Prodrug stability in rat plasma
[3] = Chemical stability in pH buffers; details: for Chemical Stability, pH 7.4 / Chemical Stability, pH 8.0: 0.1M Tris-HCl, 0.5M NaCl; for Chemical Stability, pH 2.0: 0.1M potassium phosphate, 0.5 M NaCl
[4] = Enzymatic stability / cleavage in Caco-2 homogenate S9; details: for Enzymatic Stability, Caco-2: Caco-2 S9 homogenate pH 7.4, 37° C.
HEK293 cells = test: Restoration of cellular energy homeostasis following sodium azide treatment; type: cell-based, human; details: azide 20 minutes, then compound or control media 20 minutes; FIG. 12

CN(CC(=O)O)C(=N)NP(=O)(OCOC(=O)CCCc1ccccc1)OCOC(=O)CCCc1ccccc1
Protection against 3-NP toxicity (ATP luminescence) (H9C2 cells): protects H9C2 cells against 3-NP toxicity

[[[(Bis(butylcarbonyloxymethoxy)phosphoryl)amino](imino)methyl](methyl)amino]acetic acid
Enzymatic Stability, Rat Liver S9 (Rat liver S9 stability; Time 0 h): 100.0
Enzymatic Stability, Rat Liver S9 (Rat liver S9 stability; Time 0.5 h): 83.8
Enzymatic Stability, Rat Liver S9 (Rat liver S9 stability; Time 1 h): 58.0
Enzymatic Stability, Rat Liver S9 (Rat liver S9 stability; Time 3 h): 2.4
Enzymatic Stability, Rat Liver S9 (Rat liver S9 stability; Time 6 h): 0.1
Transport across the plasma membrane of HEK cells via the SMVT transporter (SMVT transporter): is transported across the plasma membrane of HEK cells via the SMVT transporter
Percent Increase in Intracellular Concentrations, ATP ([1]; After 1 Hour): 42%
Percent Increase in Intracellular Concentrations, Creatine ([1]; After 1 Hour): 75%
Percent Increase in Intracellular Concentrations, Creatine Phosphate ([1]; After 1 Hour): 65%
Percent Increase in Intracellular Concentrations, ATP ([1]; After 3 Hours): 55%
Percent Increase in Intracellular Concentrations, Creatine ([1]; After 3 Hours): 190%
Percent Increase in Intracellular Concentrations, Creatine Phosphate ([1]; After 3 Hours): 130%
Intracellular concentrations of creatine phosphate, ATP, and creatine compared to treatment with either creatine or creatine phosphate ([1]; summary of Table 4 and Table 5): an increase in intracellular concentrations of creatine phosphate, ATP, and creatine
Enzymatic Stability, Rat Plasma ([2]; Time 0 h): 100.0
Enzymatic Stability, Rat Plasma ([2]; Time 0.5 h): 53.0
Enzymatic Stability, Rat Plasma ([2]; Time 1 h): 22.9
Enzymatic Stability, Rat Plasma ([2]; Time 3 h): 0.4
Enzymatic Stability, Rat Plasma ([2]; Time 6 h): 0.1
Chemical Stability, pH 7.4 ([3]; Time 0 h): 100.0
Chemical Stability, pH 8.0 ([3]; Time 0 h): 100.0
Chemical Stability, pH 2.0 ([3]; Time 0 h): 100.0
Chemical Stability, pH 7.4 ([3]; Time 0.5 h): 102.9
Chemical Stability, pH 8.0 ([3]; Time 0.5 h): 99.8
Chemical Stability, pH 2.0 ([3]; Time 0.5 h): 101.1
Chemical Stability, pH 7.4 ([3]; Time 1 h): 109.4
Chemical Stability, pH 8.0 ([3]; Time 1 h): 106.1
Chemical Stability, pH 2.0 ([3]; Time 1 h): 96.2
Chemical Stability, pH 7.4 ([3]; Time 3 h): 92.1
Chemical Stability, pH 8.0 ([3]; Time 3 h): 84.8
Chemical Stability, pH 2.0 ([3]; Time 3 h): 60.5
Chemical Stability, pH 7.4 ([3]; Time 6 h): 88.7
Chemical Stability, pH 8.0 ([3]; Time 6 h): 62.0
Chemical Stability, pH 2.0 ([3]; Time 6 h): 38.5
Enzymatic cleavage and release of creatine phosphate in Caco-2 S9 homogenates ([4]; FIG. 7): first enzymatically cleaved to compound (15), and then cleaved to release creatine phosphate
Enzymatic Stability, Caco-2 ([4]; Time 0 h): 100.0
Enzymatic Stability, Caco-2 ([4]; Time 0.5 h): 7.3
Enzymatic Stability, Caco-2 ([4]; Time 1 h): 0.3
Enzymatic Stability, Caco-2 ([4]; Time 3 h): 0.1
Enzymatic Stability, Caco-2 ([4]; Time 6 h): 0.0
Reversal of azide-induced ATP depletion (HEK293 cells): reverses azide-induced ATP depletion
